# Reference: US9132134B2, “Methods for treating GI tract disorders” (Neurogastrx, Inc., priority 2012, dated 2015)
# Protein sequences, listed by entry. Tags and fused reporters are not part of them.
# UniProt P14416, whole entry, species assumed: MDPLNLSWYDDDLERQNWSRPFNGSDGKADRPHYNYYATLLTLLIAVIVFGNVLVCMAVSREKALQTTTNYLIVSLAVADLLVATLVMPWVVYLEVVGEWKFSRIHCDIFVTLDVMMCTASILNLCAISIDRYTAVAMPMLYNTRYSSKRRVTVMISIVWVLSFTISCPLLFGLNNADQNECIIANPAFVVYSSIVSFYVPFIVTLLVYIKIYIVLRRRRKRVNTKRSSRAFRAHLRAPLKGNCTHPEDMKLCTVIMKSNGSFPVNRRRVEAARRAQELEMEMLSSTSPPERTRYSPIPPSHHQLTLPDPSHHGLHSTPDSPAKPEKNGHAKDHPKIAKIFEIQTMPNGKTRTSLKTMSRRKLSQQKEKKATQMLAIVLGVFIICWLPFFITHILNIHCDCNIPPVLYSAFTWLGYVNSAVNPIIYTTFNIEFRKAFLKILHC
# Target: dopamine D2 receptor (Homo sapiens (Human), UniProt P14416)
# Test: Radioligand binding assay, [3H]spiperone, membranes of D2 receptor expressing cells
# Settings: [3H]spiperone competition; read-out: Radioligand Binding Affinity (Ki, nM) D2
smiles,measurement,value
CS(=O)(=O)c1ccc2c(c1)N(CCCN1CCC(C(=O)O)CC1)c1ccccc1S2 [Metopimazine acid],Ki,14 nM
